Data: PMC12102759 (Protein Science : A Publication of the Protein Society, 2025)

Tested on: AP2M1 MU
Assay type: binding, human

| Sequence | PSSM value of the substitution (DMS by phage display) |
| --- | --- |
| QVVSDIDYVPLKSATA I6Q (QVVSDQDYVPLKSATA) | 0 |
| QVVSDIDYVPLKSATA I6R (QVVSDRDYVPLKSATA) | 0 |
| QVVSDIDYVPLKSATA I6S (QVVSDSDYVPLKSATA) | 0.0001333 |
| QVVSDIDYVPLKSATA I6T (QVVSDTDYVPLKSATA) | 0 |
| QVVSDIDYVPLKSATA I6V (QVVSDVDYVPLKSATA) | 0.0007207 |
| QVVSDIDYVPLKSATA I6W (QVVSDWDYVPLKSATA) | 0.0005519 |
| QVVSDIDYVPLKSATA I6Y (QVVSDYDYVPLKSATA) | 0.9949 |
| QVVSDIDYVPLKSATA K12A (QVVSDIDYVPLASATA) | 0.0001947 |
| QVVSDIDYVPLKSATA K12D (QVVSDIDYVPLDSATA) | 0 |
| QVVSDIDYVPLKSATA K12E (QVVSDIDYVPLESATA) | 0.0286 |
| QVVSDIDYVPLKSATA K12F (QVVSDIDYVPLFSATA) | 0.001392 |
| QVVSDIDYVPLKSATA K12G (QVVSDIDYVPLGSATA) | 0.0008504 |
| QVVSDIDYVPLKSATA K12H (QVVSDIDYVPLHSATA) | 0.09002 |
| QVVSDIDYVPLKSATA K12I (QVVSDIDYVPLISATA) | 9.01e-5 |
| QVVSDIDYVPLKSATA K12K | 0.002281 |
| QVVSDIDYVPLKSATA K12L (QVVSDIDYVPLLSATA) | 0.0001065 |
| QVVSDIDYVPLKSATA K12M (QVVSDIDYVPLMSATA) | 0.03934 |
| QVVSDIDYVPLKSATA K12N (QVVSDIDYVPLNSATA) | 0.01307 |
| QVVSDIDYVPLKSATA K12P (QVVSDIDYVPLPSATA) | 0.001923 |
| QVVSDIDYVPLKSATA K12Q (QVVSDIDYVPLQSATA) | 0.0001065 |
| QVVSDIDYVPLKSATA K12R (QVVSDIDYVPLRSATA) | 0 |
| QVVSDIDYVPLKSATA K12S (QVVSDIDYVPLSSATA) | 0.7818 |
| QVVSDIDYVPLKSATA K12T (QVVSDIDYVPLTSATA) | 0.03207 |
| QVVSDIDYVPLKSATA K12V (QVVSDIDYVPLVSATA) | 0.0005152 |

| Sequence | PSSM value of the substitution (DMS by phage display) |
| --- | --- |
| QVVSDIDYVPLKSATA K12W (QVVSDIDYVPLWSATA) | 0.000213 |
| QVVSDIDYVPLKSATA K12Y (QVVSDIDYVPLYSATA) | 0.007432 |
| QVVSDIDYVPLKSATA L11A (QVVSDIDYVPAKSATA) | 0 |
| QVVSDIDYVPLKSATA L11D (QVVSDIDYVPDKSATA) | 0 |
| QVVSDIDYVPLKSATA L11E (QVVSDIDYVPEKSATA) | 0 |
| QVVSDIDYVPLKSATA L11F (QVVSDIDYVPFKSATA) | 0.02689 |
| QVVSDIDYVPLKSATA L11G (QVVSDIDYVPGKSATA) | 0 |
| QVVSDIDYVPLKSATA L11H (QVVSDIDYVPHKSATA) | 0 |
| QVVSDIDYVPLKSATA L11I (QVVSDIDYVPIKSATA) | 0.2926 |
| QVVSDIDYVPLKSATA L11K (QVVSDIDYVPKKSATA) | 0 |
| QVVSDIDYVPLKSATA L11L | 0.6805 |
| QVVSDIDYVPLKSATA L11M (QVVSDIDYVPMKSATA) | 0 |
| QVVSDIDYVPLKSATA L11N (QVVSDIDYVPNKSATA) | 0 |
| QVVSDIDYVPLKSATA L11P (QVVSDIDYVPPKSATA) | 0 |
| QVVSDIDYVPLKSATA L11Q (QVVSDIDYVPQKSATA) | 0 |
| QVVSDIDYVPLKSATA L11R (QVVSDIDYVPRKSATA) | 0 |
| QVVSDIDYVPLKSATA L11S (QVVSDIDYVPSKSATA) | 0 |
| QVVSDIDYVPLKSATA L11T (QVVSDIDYVPTKSATA) | 0 |
| QVVSDIDYVPLKSATA L11V (QVVSDIDYVPVKSATA) | 0 |
| QVVSDIDYVPLKSATA L11W (QVVSDIDYVPWKSATA) | 0 |
| QVVSDIDYVPLKSATA L11Y (QVVSDIDYVPYKSATA) | 0 |
| QVVSDIDYVPLKSATA P10A (QVVSDIDYVALKSATA) | 0 |
| QVVSDIDYVPLKSATA P10D (QVVSDIDYVDLKSATA) | 0 |
| QVVSDIDYVPLKSATA P10E (QVVSDIDYVELKSATA) | 0 |

| Sequence | PSSM value of the substitution (DMS by phage display) |
| --- | --- |
| QVVSDIDYVPLKSATA P10F (QVVSDIDYVFLKSATA) | 0 |
| QVVSDIDYVPLKSATA P10G (QVVSDIDYVGLKSATA) | 0 |
| QVVSDIDYVPLKSATA P10H (QVVSDIDYVHLKSATA) | 0 |
| QVVSDIDYVPLKSATA P10I (QVVSDIDYVILKSATA) | 0.04265 |
| QVVSDIDYVPLKSATA P10K (QVVSDIDYVKLKSATA) | 0 |
| QVVSDIDYVPLKSATA P10L (QVVSDIDYVLLKSATA) | 0.27 |
| QVVSDIDYVPLKSATA P10M (QVVSDIDYVMLKSATA) | 0.01637 |
| QVVSDIDYVPLKSATA P10N (QVVSDIDYVNLKSATA) | 0 |
| QVVSDIDYVPLKSATA P10P | 0.5237 |
| QVVSDIDYVPLKSATA P10Q (QVVSDIDYVQLKSATA) | 0 |
| QVVSDIDYVPLKSATA P10R (QVVSDIDYVRLKSATA) | 0 |
| QVVSDIDYVPLKSATA P10S (QVVSDIDYVSLKSATA) | 0.02069 |
| QVVSDIDYVPLKSATA P10T (QVVSDIDYVTLKSATA) | 0 |
| QVVSDIDYVPLKSATA P10V (QVVSDIDYVVLKSATA) | 0 |
| QVVSDIDYVPLKSATA P10W (QVVSDIDYVWLKSATA) | 0.1266 |
| QVVSDIDYVPLKSATA P10Y (QVVSDIDYVYLKSATA) | 0 |
| QVVSDIDYVPLKSATA S4A (QVVADIDYVPLKSATA) | 0 |
| QVVSDIDYVPLKSATA S4D (QVVDDIDYVPLKSATA) | 0 |
| QVVSDIDYVPLKSATA S4E (QVVEDIDYVPLKSATA) | 0 |
| QVVSDIDYVPLKSATA S4F (QVVFDIDYVPLKSATA) | 0.0002135 |
| QVVSDIDYVPLKSATA S4G (QVVGDIDYVPLKSATA) | 0.3772 |
| QVVSDIDYVPLKSATA S4H (QVVHDIDYVPLKSATA) | 0.0002135 |
| QVVSDIDYVPLKSATA S4I (QVVIDIDYVPLKSATA) | 0 |
| QVVSDIDYVPLKSATA S4K (QVVKDIDYVPLKSATA) | 0 |

| Sequence | PSSM value of the substitution (DMS by phage display) |
| --- | --- |
| QVVSDIDYVPLKSATA S4L (QVVLDIDYVPLKSATA) | 0 |
| QVVSDIDYVPLKSATA S4M (QVVMDIDYVPLKSATA) | 0 |
| QVVSDIDYVPLKSATA S4N (QVVNDIDYVPLKSATA) | 0.0706 |
| QVVSDIDYVPLKSATA S4P (QVVPDIDYVPLKSATA) | 0.01428 |
| QVVSDIDYVPLKSATA S4Q (QVVQDIDYVPLKSATA) | 0 |
| QVVSDIDYVPLKSATA S4R (QVVRDIDYVPLKSATA) | 0.0002135 |
| QVVSDIDYVPLKSATA S4S | 0.01383 |
| QVVSDIDYVPLKSATA S4T (QVVTDIDYVPLKSATA) | 0 |
| QVVSDIDYVPLKSATA S4V (QVVVDIDYVPLKSATA) | 0 |
| QVVSDIDYVPLKSATA S4W (QVVWDIDYVPLKSATA) | 0 |
| QVVSDIDYVPLKSATA S4Y (QVVYDIDYVPLKSATA) | 0.5235 |
| QVVSDIDYVPLKSATA S13A (QVVSDIDYVPLKAATA) | 6.609e-5 |
| QVVSDIDYVPLKSATA S13D (QVVSDIDYVPLKDATA) | 0.9138 |
| QVVSDIDYVPLKSATA S13E (QVVSDIDYVPLKEATA) | 0.0004072 |
| QVVSDIDYVPLKSATA S13F (QVVSDIDYVPLKFATA) | 0.01018 |
| QVVSDIDYVPLKSATA S13G (QVVSDIDYVPLKGATA) | 0.0002734 |
| QVVSDIDYVPLKSATA S13H (QVVSDIDYVPLKHATA) | 6.736e-5 |
| QVVSDIDYVPLKSATA S13I (QVVSDIDYVPLKIATA) | 3.432e-5 |
| QVVSDIDYVPLKSATA S13K (QVVSDIDYVPLKKATA) | 0 |
| QVVSDIDYVPLKSATA S13L (QVVSDIDYVPLKLATA) | 0.0009784 |
| QVVSDIDYVPLKSATA S13M (QVVSDIDYVPLKMATA) | 0 |
| QVVSDIDYVPLKSATA S13N (QVVSDIDYVPLKNATA) | 0.05943 |
| QVVSDIDYVPLKSATA S13P (QVVSDIDYVPLKPATA) | 0 |
| QVVSDIDYVPLKSATA S13Q (QVVSDIDYVPLKQATA) | 3.305e-5 |
